Experimental findings from US10155749B2, “Substituted benzimidazolium compounds useful in the treatment of respiratory diseases” (Boehringer Ingelheim International GmbH, priority 2015, dated 2018) are described below.

By UniProt entry, the sequences of proteins in these tests, tags left out.
UniProt Q61180, whole entry: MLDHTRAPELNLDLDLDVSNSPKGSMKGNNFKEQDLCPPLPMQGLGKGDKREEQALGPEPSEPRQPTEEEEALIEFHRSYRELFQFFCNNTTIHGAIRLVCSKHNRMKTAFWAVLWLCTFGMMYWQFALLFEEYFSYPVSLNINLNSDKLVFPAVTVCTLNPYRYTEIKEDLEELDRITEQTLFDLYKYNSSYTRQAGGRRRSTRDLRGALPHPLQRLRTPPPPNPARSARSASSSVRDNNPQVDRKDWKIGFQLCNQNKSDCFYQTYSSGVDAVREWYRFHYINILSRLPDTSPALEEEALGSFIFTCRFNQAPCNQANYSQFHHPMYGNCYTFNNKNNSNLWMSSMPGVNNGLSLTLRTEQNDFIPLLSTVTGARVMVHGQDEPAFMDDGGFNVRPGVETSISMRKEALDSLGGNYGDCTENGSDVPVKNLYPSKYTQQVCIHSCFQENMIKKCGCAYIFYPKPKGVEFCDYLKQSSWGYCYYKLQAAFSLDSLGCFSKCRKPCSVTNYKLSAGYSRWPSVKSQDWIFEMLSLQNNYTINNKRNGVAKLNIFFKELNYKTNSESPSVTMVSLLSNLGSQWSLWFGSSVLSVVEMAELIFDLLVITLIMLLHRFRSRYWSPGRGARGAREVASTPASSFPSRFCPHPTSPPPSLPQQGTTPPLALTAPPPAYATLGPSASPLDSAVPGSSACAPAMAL
UniProt Q9WU38, whole entry: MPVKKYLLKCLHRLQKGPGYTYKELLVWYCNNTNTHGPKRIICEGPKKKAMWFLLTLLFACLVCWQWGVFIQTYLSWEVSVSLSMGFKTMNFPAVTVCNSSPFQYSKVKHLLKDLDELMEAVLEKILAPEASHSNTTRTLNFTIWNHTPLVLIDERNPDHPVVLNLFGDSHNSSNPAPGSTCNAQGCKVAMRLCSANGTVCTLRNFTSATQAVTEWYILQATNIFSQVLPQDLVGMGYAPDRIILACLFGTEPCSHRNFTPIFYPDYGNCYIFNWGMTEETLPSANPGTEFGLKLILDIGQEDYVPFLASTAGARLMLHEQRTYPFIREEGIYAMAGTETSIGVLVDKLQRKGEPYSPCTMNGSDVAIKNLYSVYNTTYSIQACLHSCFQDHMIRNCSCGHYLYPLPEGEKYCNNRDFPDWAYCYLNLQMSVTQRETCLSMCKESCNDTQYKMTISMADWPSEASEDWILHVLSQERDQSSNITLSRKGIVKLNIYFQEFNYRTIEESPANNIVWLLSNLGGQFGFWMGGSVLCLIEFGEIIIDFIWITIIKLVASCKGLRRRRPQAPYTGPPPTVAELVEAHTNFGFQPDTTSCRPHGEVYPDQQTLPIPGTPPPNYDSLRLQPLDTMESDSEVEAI
UniProt Q9WU39, whole entry: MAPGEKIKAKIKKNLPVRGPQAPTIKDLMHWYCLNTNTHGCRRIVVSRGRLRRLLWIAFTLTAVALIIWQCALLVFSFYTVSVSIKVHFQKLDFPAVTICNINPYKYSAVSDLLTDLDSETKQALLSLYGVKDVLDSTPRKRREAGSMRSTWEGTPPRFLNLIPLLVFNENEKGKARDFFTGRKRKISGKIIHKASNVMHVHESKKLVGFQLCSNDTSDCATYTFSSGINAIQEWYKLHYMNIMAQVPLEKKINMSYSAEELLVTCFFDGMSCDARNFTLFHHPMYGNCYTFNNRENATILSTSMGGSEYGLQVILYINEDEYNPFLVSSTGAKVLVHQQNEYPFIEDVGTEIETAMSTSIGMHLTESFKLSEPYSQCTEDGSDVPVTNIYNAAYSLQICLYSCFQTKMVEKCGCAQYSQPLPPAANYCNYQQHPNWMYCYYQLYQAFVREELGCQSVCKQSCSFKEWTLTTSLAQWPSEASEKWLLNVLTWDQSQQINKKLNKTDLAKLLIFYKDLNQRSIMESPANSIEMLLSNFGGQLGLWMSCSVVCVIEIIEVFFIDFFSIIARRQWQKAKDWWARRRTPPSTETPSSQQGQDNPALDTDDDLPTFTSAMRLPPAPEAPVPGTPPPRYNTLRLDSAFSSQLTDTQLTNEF

In this test the target is ENaC (Epithelial Sodium Channel) (Mus musculus, UniProt Q61180+Q9WU38+Q9WU39). The experiment in a line: Ussing Chamber assay (short circuit current, amiloride sensitive I_SC) in M-1 cells. Conditions: Mouse kidney M-1 cells, apical application, 37° C.; tested form: iodide. The procedure:
The IC50 values of the example compounds given above were determined in the Ussing Chamber assay.
Ussing Chamber: Mouse kidney M-1 cells were cultivated in DMEM containing 5% FCS and 5 μM dexamethasone for 10 to 12 days on polyester transwell filters. Filters were inserted into a teflon-coated well-plate which fit into the ussing chamber system. Prior to measurement the medium of M-1 cells was replaced with Caco-2 transport buffer (Invitrogen, Germany). During measurements, the Ussing chamber temperature was kept at 37° C. Short circuit currents (I_sc) were measured in the voltage-clamp mode with the software package Lab View for data acquisition and analysis. The transepithelial electrical resistance (TEER) was determined by the application of voltage steps of ±5 mV every 5 sec. Compounds were administered at a final concentration of 3 μM or at increasing concentrations (1-3-10 μM) to the apical solution. At the end of each experiment the amiloride sensitive I_SC was measured by adding 3 μM amiloride to the apical compartment. Results are expressed as inhibition in percent of the amiloride effect or as IC50.

As usually defined, the IC50 is the midpoint of a concentration-inhibition curve. High values mean lower potency, low ones higher potency. Molecule `CCn1c(CNC(=O)c2nc(Cl)c(N)nc2N)[n+](CC)c2ccc(OCCNC(=O)[C@H](C)NC(=O)OC(C)(C)C)cc21` showed an IC50 of 1 nM.
